The results in this text go back to ChEMBL document CHEMBL6127039, “An update on small molecule compounds targeting synthetic lethality for cancer therapy” (Eur J Med Chem, 2024).

The chains behind the UniProt entries cited, without tags or fusion partners. Where a name states a change or a piece, a line headed by the entry shows the natural chain unless it says otherwise.
UniProt P54132: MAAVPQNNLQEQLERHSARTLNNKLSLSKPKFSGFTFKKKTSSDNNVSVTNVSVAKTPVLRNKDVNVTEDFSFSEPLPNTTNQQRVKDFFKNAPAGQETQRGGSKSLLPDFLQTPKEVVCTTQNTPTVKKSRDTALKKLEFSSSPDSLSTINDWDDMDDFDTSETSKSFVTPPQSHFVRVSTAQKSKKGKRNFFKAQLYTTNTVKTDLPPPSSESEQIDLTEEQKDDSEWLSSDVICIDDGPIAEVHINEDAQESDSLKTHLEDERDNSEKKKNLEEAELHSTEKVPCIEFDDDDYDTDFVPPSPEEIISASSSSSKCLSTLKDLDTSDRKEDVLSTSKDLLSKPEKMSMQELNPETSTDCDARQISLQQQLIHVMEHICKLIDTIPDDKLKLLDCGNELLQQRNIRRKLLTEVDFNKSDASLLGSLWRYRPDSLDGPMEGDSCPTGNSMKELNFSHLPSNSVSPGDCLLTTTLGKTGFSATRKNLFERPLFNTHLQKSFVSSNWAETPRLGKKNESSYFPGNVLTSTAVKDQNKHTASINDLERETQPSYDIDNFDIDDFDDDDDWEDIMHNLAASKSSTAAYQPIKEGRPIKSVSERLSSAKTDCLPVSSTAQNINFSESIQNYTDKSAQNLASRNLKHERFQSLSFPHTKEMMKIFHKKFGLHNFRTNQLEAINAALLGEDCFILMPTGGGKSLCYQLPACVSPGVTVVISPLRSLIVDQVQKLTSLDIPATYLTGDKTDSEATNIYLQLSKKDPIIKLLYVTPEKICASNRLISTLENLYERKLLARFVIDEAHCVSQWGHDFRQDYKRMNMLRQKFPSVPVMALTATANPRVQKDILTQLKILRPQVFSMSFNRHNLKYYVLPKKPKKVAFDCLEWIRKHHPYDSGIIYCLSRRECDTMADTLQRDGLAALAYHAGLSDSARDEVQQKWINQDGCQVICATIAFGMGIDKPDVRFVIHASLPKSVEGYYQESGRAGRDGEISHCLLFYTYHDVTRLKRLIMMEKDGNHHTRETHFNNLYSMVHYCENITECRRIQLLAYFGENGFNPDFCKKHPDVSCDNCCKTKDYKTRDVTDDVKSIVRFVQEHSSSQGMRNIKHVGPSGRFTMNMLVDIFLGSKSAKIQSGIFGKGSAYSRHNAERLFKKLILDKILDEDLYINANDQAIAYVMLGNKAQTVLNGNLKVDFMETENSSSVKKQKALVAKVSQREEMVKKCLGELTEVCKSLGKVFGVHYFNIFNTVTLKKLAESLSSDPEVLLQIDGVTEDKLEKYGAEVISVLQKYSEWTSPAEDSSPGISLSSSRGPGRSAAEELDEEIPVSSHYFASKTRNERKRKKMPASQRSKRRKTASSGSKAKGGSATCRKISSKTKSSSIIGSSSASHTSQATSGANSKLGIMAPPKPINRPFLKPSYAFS

For this test, the target named is RecQ-like DNA helicase BLM (Homo sapiens, UniProt P54132). The test can be described thus: Inhibition of BLM (unknown origin).

Take `O=C(Nc1ccc(F)c(C(F)(F)F)c1)Nc1nnc(-c2ccncc2)s1`: half-maximal inhibition (IC50) was put at 5 µM.
